The source of these data is ChEMBL document CHEMBL1132531, “From histamine to imidazolylalkyl-sulfonamides: the design of a novel series of histamine H3-receptor antagonists” (Bioorg Med Chem Lett, 1999).

Protein sequences, listed by entry. Tags and fused reporters are not part of them. Lines headed by an entry give the natural chain unless they say otherwise; changes in a name come on top.
UniProt Q9JI35: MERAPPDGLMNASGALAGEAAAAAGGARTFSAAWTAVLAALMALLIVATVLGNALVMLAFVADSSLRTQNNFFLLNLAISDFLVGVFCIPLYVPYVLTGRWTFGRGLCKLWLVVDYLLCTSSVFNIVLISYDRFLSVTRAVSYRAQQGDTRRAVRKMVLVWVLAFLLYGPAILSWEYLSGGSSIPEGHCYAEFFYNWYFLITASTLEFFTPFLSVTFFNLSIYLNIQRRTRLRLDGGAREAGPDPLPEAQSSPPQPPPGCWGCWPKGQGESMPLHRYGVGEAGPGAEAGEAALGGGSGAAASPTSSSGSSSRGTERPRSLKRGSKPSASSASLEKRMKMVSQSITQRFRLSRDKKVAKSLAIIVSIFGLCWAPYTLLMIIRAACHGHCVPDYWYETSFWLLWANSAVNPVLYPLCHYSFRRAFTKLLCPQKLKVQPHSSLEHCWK

The assay deals with Histamine H3 receptor (Cavia porcellus, UniProt Q9JI35). The assay can be described thus: Binding affinity towards histamine H3 receptor using [3H](R)-alpha-methylhistamine as radioligand in guinea pig cortical homogenates.

The term Ki denotes a dissociation constant, usually derived from enzyme kinetics or from competition with a known ligand. Low values mean higher affinity, high ones lower affinity. Regarding `O=S(=O)(Cc1ccccc1)NCCc1c[nH]cn1`, the Ki was 1.86 µM.
